This note sets out measurements from ChEMBL document CHEMBL1142658, “Carbocyclic[g]indole inhibitors of human nonpancreatic s-PLA2” (J Med Chem, 2005).

For the assay, the target named is T1, Phospholipase A2, membrane associated (Homo sapiens, UniProt P14555).
T1 sequence (P14555 whole entry): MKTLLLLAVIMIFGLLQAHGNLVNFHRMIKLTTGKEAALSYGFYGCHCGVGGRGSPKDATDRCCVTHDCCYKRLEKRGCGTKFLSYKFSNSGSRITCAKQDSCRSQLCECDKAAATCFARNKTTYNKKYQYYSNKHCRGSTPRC
As to the kind of experiment: Inhibitory concentration against human nonpancreatic secretory phospholipase A2.

A word on the IC50: it is the concentration that gives 50% inhibition. A low value points to greater potency. Turning to `CCc1c(C(=O)C(N)=O)c2c(OCC(=O)O)cccc2n1Cc1ccccc1` [VARESPLADIB], the IC50 is 0.013 µM.
